Biological target: human recombinant Btk (Homo sapiens, UniProt Q06187)
Experiment: Btk enzymatic activity assay (Caliper-based kinase assay)
Format: biochemical
Details: human recombinant Btk 2 nM, ATP 40 μM, room temperature 3 h, compounds of Cpd Table 1

The chains behind the UniProt entries cited, without tags or fusion partners. Where a name states a change or a piece, a line headed by the entry shows the natural chain unless it says otherwise.
UniProt Q06187: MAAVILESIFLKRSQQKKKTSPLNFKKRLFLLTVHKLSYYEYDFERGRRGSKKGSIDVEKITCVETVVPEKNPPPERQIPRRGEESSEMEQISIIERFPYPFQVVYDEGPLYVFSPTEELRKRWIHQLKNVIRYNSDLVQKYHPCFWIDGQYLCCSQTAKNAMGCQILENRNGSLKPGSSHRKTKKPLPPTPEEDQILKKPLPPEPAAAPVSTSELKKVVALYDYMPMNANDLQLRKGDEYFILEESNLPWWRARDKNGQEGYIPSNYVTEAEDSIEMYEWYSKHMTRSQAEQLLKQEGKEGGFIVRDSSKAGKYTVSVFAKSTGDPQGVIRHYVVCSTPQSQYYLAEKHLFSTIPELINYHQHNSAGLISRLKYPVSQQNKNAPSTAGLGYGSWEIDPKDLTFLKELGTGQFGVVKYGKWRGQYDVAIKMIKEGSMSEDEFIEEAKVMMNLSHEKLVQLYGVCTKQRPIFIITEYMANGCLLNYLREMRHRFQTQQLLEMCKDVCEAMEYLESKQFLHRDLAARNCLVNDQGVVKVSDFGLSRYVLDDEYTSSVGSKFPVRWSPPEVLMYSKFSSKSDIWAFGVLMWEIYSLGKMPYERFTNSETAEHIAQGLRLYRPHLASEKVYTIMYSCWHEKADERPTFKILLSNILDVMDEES

SMILES: N#CC(=CC1CCCN1)C(=O)N1CCCC1Cn1nc(-c2ccc(Oc3ccccc3)cc2F)c2c(N)ncnc21 (stereo not shown) [Example 186, N-(2-(4-amino-3-(4-phenoxyphenyl)-1H-pyrazolo[3,4-d]pyrimidin-1-yl)ethyl)-2-cyano-3-cyclopropyl-N-methyl acrylamide]
- IC50: 3.7 nM
